Test results from US20170001988A1, “PIPERIDINE AND PIPERAZINE DERIVATIVES AND THEIR USE IN TREATING VIRAL INFECTIONS AND CANCER” (THE UNITED STATES OF AMERICA, AS REPRESENTED BY THE …, priority 2013, published 2017).

Experiments:
in vitro = settings: human
Huh7.5.1 cells = settings: human

Row | SMILES | CC50 (in vitro) | CC50 (Huh7.5.1 cells)
1 | CCN1CCN(C(c2ccccc2)c2ccc(Br)cc2)CC1 (racemic) [Br, H, Et (R,S), 1-((4-Bromophenyl)(phenyl)methyl)-4-ethylpiperazine] | 35.2 ± 1.4 µM | –
2 | Brc1ccc(C(c2ccccc2)N2CCNCC2)cc1 (centres unmarked) [Br, H, H, 1-((4-bromophenyl)(phenyl)methyl)piperazine] | – | 7.93 ± 0.83 µM
3 | NCCOCCOCCOCCOCCN1CCN(C(c2ccc(Cl)cc2)c2ccc(Cl)cc2)CC1 [Cl, Cl, (CH2CH2O)4CH2CH2NH2, 14-(4-(bis(4-Chlorophenyl)methyl)piperazin-1-yl)-3,6,9,12-tetraoxatetradecan-1-amine] | – | 4.43 ± 0.12 µM
4 | CN1CCN(C(c2ccc(Cl)cc2)c2ccc(Cl)cc2)CC1 [Cl, Cl, Me, 1-(bis(4-Chlorophenyl)methyl)-4-methylpiperazine] | – | 21.3 ± 2.3 µM
5 | CN1CCN(C(c2ccccc2)c2ccccc2)CC1 [H, H, Me, 1-Benzhydryl-4-methylpiperazine] | > 100 µM | –
